## Cyclic peptide permeability, from CycPeptMPDB

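Conditions beyond the assay type are not listed; see the original paper. Other peptides of the study may be missing here. Peptides that the database sets to -10, its floor, are left out.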

PAMPA is the parallel artificial membrane permeability assay, which has no cells and reads passive diffusion.
Permeability is in 10^-6 cm/s, converted from the database's log10 values; higher is more permeable.

{"smiles": "CC(=O)N1CCC[C@H]1C(=O)N(C)[C@H](CC(C)C)C(=O)N[C@@H]1C(=O)N[C@H](Cc2ccc(F)cc2)C(=O)N[C@@H](CCc2ccccc2)C(=O)N[C@H](CC(C)C)C(=O)N(C)[C@H](C)C(=O)N[C@@H](CC(C)C)C(=O)N2CCC[C@H]2C(=O)O[C@@H]1C", "PAMPA (10^-6 cm/s)": "3.4"}
{"smiles": "CCC[C@H]1NC(=O)[C@@H](NC(=O)[C@@H](CC(C)C)N(C)C(=O)[C@@H]2CCCN2C(C)=O)[C@@H](C)OC(=O)[C@@H]2CCCN2C(=O)[C@H](CC(C)C)NC(=O)[C@@H](C)N(C)C(=O)[C@@H](CC2CCCCC2)NC(=O)[C@H](CC(C)C)NC1=O", "PAMPA (10^-6 cm/s)": "2"}
{"smiles": "CC[C@H]1NC(=O)[C@H](CCc2ccccc2)NC(=O)[C@@H](Cc2ccccc2)NC(=O)[C@@H](NC(=O)[C@@H](CC(C)C)N(C)C(=O)[C@@H]2CCCN2C(C)=O)[C@@H](C)OC(=O)[C@@H]2CCCN2C(=O)[C@H](CC(C)C)NC(=O)[C@@H](C)N(C)C1=O", "PAMPA (10^-6 cm/s)": "2"}
{"smiles": "CC(=O)N[C@@H]1C(=O)N2CCC[C@H]2C(=O)N(C)[C@H](CC(C)C)C(=O)N[C@@H](CC(C)C)C(=O)N(C)[C@H](CC(C)C)C(=O)N[C@H](CC(C)C)C(=O)N(C)[C@@H](C)C(=O)N[C@@H](CC(C)C)C(=O)N2CCC[C@@H]2C(=O)O[C@@H]1C", "PAMPA (10^-6 cm/s)": "11"}
{"smiles": "CC(=O)N1CCC[C@H]1C(=O)N(C)[C@H](CC(C)C)C(=O)N[C@@H]1C(=O)N[C@H](CC2CCCCC2)C(=O)N[C@@H](CCc2ccccc2)C(=O)N[C@H](Cc2ccccc2)C(=O)N(C)[C@H](C)C(=O)N[C@@H](CC(C)C)C(=O)N2CCC[C@H]2C(=O)O[C@@H]1C", "PAMPA (10^-6 cm/s)": "0.14"}
{"smiles": "CC(=O)N1CCC[C@H]1C(=O)N[C@@H]1C(=O)N[C@H](CC(C)C)C(=O)N(C)[C@H](CC(C)C)C(=O)N[C@H](CC(C)C)C(=O)N[C@H](CC(C)C)C(=O)N[C@@H](C)C(=O)N[C@@H](CC(C)C)C(=O)N2CCC[C@@H]2C(=O)O[C@@H]1C", "PAMPA (10^-6 cm/s)": "7.9"}
{"smiles": "CC(=O)N1CCC[C@H]1C(=O)N[C@@H]1C(=O)N(C)[C@H](CC(C)C)C(=O)N[C@H](CC(C)C)C(=O)N(C)[C@H](CC(C)C)C(=O)N(C)[C@H](CC(C)C)C(=O)N[C@@H](C)C(=O)N[C@@H](CC(C)C)C(=O)N2CCC[C@@H]2C(=O)O[C@@H]1C", "PAMPA (10^-6 cm/s)": "0.12"}
{"smiles": "COc1ccc(C[C@@H]2NC(=O)[C@@H](CC3CCCCC3)NC(=O)[C@@H](NC(=O)[C@@H](CC(C)C)N(C)C(=O)[C@@H]3CCCN3C(C)=O)[C@@H](C)OC(=O)[C@@H]3CCCN3C(=O)[C@H](CC(C)C)NC(=O)[C@@H](C)N(C)C(=O)[C@@H](Cc3ccccc3)NC2=O)cc1", "PAMPA (10^-6 cm/s)": "0.32"}
{"smiles": "CC(=O)N1CCC[C@H]1C(=O)N(C)[C@H](CC(C)C)C(=O)N[C@@H]1C(=O)N[C@H](CC(C)C)C(=O)N[C@@H](Cc2ccc(F)cc2)C(=O)N[C@H](CC2CCCCC2)C(=O)N(C)[C@H](C)C(=O)N[C@@H](CC(C)C)C(=O)N2CCC[C@H]2C(=O)O[C@@H]1C", "PAMPA (10^-6 cm/s)": "0.14"}
{"smiles": "CC(=O)N1CCC[C@H]1C(=O)N[C@@H]1C(=O)N(C)[C@H](CC(C)C)C(=O)N[C@H](CC(C)C)C(=O)N(C)[C@H](CC(C)C)C(=O)N(C)[C@@H](CC(C)C)C(=O)N[C@H](C)C(=O)N[C@@H](CC(C)C)C(=O)N2CCC[C@@H]2C(=O)O[C@@H]1C", "PAMPA (10^-6 cm/s)": "6.5"}
{"smiles": "CCC[C@H]1NC(=O)[C@@H](NC(=O)[C@@H](CC(C)C)N(C)C(=O)[C@@H]2CCCN2C(C)=O)[C@@H](C)OC(=O)[C@@H]2CCCN2C(=O)[C@H](CC(C)C)NC(=O)[C@@H](C)N(C)C(=O)[C@@H](CC2CCCCC2)NC(=O)[C@H](Cc2ccc(OC)cc2)NC1=O", "PAMPA (10^-6 cm/s)": "0.14"}
{"smiles": "CC[C@H]1NC(=O)[C@@H](NC(=O)[C@@H](CC(C)C)N(C)C(=O)[C@@H]2CCCN2C(C)=O)[C@@H](C)OC(=O)[C@@H]2CCCN2C(=O)[C@H](CC(C)C)NC(=O)[C@@H](C)N(C)C(=O)[C@@H](Cc2cccc3ccccc23)NC(=O)[C@H](Cc2ccc(OC)cc2)NC1=O", "PAMPA (10^-6 cm/s)": "2.3"}
{"smiles": "CC(=O)N1CCC[C@H]1C(=O)N(C)[C@H](CC(C)C)C(=O)N[C@@H]1C(=O)N[C@H](Cc2ccc(F)cc2)C(=O)N[C@@H](CC(C)C)C(=O)N[C@H](Cc2ccccc2)C(=O)N(C)[C@H](C)C(=O)N[C@@H](CC(C)C)C(=O)N2CCC[C@H]2C(=O)O[C@@H]1C", "PAMPA (10^-6 cm/s)": "2.6"}
{"smiles": "CC[C@@H]1NC(=O)[C@@H](Cc2ccccc2)NC(=O)[C@@H](NC(=O)[C@@H](CC(C)C)N(C)C(=O)[C@@H]2CCCN2C(C)=O)[C@@H](C)OC(=O)[C@@H]2CCCN2C(=O)[C@H](CC(C)C)NC(=O)[C@@H](C)N(C)C(=O)[C@@H](CC2CCCCC2)NC1=O", "PAMPA (10^-6 cm/s)": "2.6"}

2 of these entries, quoted again:

{"smiles": "CC(=O)N1CCC[C@H]1C(=O)N(C)[C@H](CC(C)C)C(=O)N[C@@H]1C(=O)N[C@H](CC(C)C)C(=O)N[C@@H](Cc2ccc(F)cc2)C(=O)N[C@H](CC2CCCCC2)C(=O)N(C)[C@H](C)C(=O)N[C@@H](CC(C)C)C(=O)N2CCC[C@H]2C(=O)O[C@@H]1C", "PAMPA (10^-6 cm/s)": "0.14"}
{"smiles": "CC[C@H]1NC(=O)[C@@H](NC(=O)[C@@H](CC(C)C)N(C)C(=O)[C@@H]2CCCN2C(C)=O)[C@@H](C)OC(=O)[C@@H]2CCCN2C(=O)[C@H](CC(C)C)NC(=O)[C@@H](C)N(C)C(=O)[C@@H](Cc2cccc3ccccc23)NC(=O)[C@H](Cc2ccc(OC)cc2)NC1=O", "PAMPA (10^-6 cm/s)": "2.3"}

Collected by the curators of CycPeptMPDB (Li et al. 2023) from Kelly et al. 2021, doi:10.1021/jacs.0c06115.